According to US12448425B2, “Therapeutic peptides” (Board of Regents, The University of Texas System, priority 2019, dated 2025):

Target: T1, EphB4 (Homo sapiens, UniProt P54760)
T1 construct: purchased R&D Systems
T1 sequence (P54760 16-987): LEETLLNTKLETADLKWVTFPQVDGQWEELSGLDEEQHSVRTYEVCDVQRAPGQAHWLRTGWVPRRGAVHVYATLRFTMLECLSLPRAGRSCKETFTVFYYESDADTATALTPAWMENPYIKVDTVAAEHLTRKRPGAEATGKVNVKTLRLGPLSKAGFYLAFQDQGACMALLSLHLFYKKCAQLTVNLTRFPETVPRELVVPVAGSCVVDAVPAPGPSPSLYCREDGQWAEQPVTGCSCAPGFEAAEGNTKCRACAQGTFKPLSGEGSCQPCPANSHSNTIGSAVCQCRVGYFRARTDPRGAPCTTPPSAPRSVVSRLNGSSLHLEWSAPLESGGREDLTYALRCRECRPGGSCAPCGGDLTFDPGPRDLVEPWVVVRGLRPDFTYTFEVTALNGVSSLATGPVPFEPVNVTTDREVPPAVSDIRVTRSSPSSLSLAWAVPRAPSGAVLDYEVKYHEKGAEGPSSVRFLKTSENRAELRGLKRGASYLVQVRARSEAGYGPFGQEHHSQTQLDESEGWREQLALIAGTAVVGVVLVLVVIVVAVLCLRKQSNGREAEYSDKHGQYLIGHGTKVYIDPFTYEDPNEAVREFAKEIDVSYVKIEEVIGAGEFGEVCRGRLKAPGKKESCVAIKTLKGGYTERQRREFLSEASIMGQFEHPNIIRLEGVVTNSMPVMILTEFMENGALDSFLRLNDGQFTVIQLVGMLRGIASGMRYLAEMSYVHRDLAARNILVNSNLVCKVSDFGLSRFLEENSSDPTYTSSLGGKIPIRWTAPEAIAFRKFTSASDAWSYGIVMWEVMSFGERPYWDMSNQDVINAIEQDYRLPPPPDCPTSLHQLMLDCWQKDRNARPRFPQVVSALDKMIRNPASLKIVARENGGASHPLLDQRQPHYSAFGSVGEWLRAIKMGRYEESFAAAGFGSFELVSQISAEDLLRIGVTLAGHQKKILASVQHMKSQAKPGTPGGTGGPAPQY
Experiment: SPR binding of peptides to immobilized EphB4
Details: SPR sensorgrams
Method: Surface plasmon resonance (SPR) binding and competition assays. A stock solution of EphB4 in PBS (100 μg/mL) was diluted to 25 μg/mL with 10 mM sodium acetate buffer (pH 4.5) and immobilized to CM5 sensor chips using the amine coupling reaction according to manufacturer-provided procedures (BIACore). Briefly, the surfaces of the chips in flow cells (FC)-1 and FC-2 were activated by exposing chips to a mixture of 200 mM N-ethyl-N′-dimethylaminopropyl carbodiimide and 50 mM N-hydroxysuccinimide for 7 min. FC-1 was used as a reference surface and was directly deactivated by injecting 1 M ethanolamine at pH 8.5 for 7 min. FC-2 was injected with 25 μg/mL human or murine EphB4 followed by injection of 1 M ethanolamine to block the remaining activated ester groups on the surface. The chips were allowed to stabilize for at least 2 h in HBSEP running buffer before injection of test analytes.
Binding assays were performed in duplicate at 25° C. in HBSEP running buffer. […] Thus, all analyzed samples, including a sample of the running buffer, were additionally injected onto an uncoated reference surface. The association rate (Kon) and dissociation rate (Kog) were calculated by fitting binding chromatogram data using the BIACore evaluation software with a 1:1 Langmuir binding model. The binding constant KD was calculated as Koff/Kon. […]

Substance: CCPM-BIDEN-AP: nano-conjugate of Cys-BIDEN-AP on core-crosslinked polymeric micelles via maleimide (GMBS) (CTNYLFSPNGPIARAW; D-residues)
- binding affinity to EphB4 (in words): retained the binding affinity to EphB4
